Earlier results on four compounds are cited in US10449216B2, “Modulating drug effects against metabotropic glutamate receptor with extracellular calcium” (GEORGIA STATE UNIVERSITY RESEARCH FOUNDATION, INC., priority 2013, dated 2019).

Amino acid sequences for entries named in this document (tags omitted). Residues count along the entry.
UniProt P23385, 19-1199: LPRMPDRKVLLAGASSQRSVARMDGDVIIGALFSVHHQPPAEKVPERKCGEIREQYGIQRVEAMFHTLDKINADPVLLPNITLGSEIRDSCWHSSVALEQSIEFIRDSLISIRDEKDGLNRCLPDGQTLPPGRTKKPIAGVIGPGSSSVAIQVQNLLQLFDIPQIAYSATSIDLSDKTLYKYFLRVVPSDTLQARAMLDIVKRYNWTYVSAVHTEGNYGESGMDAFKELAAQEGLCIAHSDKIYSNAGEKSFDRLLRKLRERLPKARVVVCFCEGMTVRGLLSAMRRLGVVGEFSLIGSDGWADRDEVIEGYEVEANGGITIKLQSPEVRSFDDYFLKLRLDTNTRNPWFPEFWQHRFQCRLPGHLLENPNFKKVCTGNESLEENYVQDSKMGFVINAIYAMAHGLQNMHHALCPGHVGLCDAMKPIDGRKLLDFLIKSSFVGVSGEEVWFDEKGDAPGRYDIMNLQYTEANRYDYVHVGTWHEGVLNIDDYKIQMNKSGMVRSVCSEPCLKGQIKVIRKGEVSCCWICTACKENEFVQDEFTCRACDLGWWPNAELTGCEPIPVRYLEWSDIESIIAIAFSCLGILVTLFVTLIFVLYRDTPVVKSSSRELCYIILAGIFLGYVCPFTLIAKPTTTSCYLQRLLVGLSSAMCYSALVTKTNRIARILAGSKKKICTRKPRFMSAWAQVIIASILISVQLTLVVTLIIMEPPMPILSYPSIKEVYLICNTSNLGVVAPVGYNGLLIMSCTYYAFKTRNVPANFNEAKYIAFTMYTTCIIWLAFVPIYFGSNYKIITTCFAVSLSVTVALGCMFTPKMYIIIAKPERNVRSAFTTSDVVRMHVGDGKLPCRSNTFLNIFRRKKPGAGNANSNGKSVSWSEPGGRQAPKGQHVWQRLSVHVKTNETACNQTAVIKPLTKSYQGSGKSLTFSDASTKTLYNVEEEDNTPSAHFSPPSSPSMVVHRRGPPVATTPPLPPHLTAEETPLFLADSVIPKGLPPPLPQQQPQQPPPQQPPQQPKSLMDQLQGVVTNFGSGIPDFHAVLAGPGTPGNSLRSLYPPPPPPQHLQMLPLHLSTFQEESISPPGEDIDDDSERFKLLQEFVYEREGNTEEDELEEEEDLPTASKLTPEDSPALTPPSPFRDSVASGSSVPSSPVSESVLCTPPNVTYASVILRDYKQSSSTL
UniProt P31424, 21-1203: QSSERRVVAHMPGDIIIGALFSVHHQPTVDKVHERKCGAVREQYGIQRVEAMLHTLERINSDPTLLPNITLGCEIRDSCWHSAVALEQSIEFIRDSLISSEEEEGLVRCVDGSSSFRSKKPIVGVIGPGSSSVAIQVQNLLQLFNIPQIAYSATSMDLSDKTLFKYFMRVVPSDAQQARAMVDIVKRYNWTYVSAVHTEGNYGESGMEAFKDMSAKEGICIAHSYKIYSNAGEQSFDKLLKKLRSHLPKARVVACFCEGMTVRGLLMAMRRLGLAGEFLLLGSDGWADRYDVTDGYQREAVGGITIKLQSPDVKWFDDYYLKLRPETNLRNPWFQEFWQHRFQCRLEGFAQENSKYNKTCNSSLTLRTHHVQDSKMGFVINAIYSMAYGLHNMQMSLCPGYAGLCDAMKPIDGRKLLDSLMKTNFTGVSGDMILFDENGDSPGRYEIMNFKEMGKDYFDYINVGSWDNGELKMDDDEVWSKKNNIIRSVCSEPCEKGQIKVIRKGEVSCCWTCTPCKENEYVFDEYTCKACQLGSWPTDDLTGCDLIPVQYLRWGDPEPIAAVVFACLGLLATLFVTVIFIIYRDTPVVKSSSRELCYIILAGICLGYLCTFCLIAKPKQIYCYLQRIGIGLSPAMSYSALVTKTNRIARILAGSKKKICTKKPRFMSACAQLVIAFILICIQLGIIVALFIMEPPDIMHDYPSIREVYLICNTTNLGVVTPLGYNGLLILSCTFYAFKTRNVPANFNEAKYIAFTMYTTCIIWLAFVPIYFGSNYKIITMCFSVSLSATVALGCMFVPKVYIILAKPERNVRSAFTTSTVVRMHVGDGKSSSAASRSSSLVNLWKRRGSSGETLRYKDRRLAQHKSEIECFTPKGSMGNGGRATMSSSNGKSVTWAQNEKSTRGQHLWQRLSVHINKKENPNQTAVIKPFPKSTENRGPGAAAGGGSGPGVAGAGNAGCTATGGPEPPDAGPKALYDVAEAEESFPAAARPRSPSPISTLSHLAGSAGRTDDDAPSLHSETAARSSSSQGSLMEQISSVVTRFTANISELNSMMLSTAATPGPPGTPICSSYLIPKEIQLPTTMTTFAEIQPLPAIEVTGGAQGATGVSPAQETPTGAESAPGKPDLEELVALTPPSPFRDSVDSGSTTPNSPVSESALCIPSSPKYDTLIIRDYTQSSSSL
UniProt P41594, 21-1212: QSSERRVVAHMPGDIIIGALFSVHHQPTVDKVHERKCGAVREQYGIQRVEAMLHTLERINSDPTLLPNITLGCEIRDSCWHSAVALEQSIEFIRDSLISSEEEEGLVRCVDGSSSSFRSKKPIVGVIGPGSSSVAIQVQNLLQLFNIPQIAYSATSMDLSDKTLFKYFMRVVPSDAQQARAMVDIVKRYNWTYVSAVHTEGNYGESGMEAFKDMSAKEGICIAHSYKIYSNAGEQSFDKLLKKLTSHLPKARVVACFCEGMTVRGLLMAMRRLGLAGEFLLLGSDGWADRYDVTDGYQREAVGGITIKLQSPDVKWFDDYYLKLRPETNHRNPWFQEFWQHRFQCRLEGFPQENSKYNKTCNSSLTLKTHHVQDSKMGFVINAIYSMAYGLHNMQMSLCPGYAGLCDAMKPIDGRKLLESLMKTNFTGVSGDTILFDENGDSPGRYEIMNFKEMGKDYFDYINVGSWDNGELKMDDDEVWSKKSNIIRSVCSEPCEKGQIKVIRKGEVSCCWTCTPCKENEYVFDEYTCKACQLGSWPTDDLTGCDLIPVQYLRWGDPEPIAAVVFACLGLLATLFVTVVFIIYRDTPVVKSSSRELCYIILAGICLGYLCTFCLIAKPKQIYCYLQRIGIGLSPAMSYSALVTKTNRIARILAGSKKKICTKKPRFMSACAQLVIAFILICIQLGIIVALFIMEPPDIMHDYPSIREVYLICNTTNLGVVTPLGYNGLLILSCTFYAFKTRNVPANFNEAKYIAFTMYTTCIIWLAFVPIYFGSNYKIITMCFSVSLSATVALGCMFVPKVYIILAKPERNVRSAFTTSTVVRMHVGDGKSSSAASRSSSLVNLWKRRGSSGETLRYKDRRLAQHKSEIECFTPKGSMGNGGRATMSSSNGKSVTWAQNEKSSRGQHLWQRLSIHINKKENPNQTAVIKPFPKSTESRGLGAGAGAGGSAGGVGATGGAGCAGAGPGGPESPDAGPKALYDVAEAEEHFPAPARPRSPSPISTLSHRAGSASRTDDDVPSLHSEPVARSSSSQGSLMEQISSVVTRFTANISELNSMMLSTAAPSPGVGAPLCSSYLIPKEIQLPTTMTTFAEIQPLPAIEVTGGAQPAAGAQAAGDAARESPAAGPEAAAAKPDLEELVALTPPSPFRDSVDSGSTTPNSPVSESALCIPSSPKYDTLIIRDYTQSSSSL

The target of one data set is mGluR1 (Rattus norvegicus, UniProt P23385). The settings on record: mGluR1, Sp. Rn; cited from earlier work.
Data set [1] has as its target mGluR5 (Rattus norvegicus, UniProt P31424). The settings on record: mGluR5, Sp. Rn; cited from earlier work.
For data set [2], the target named is mGluR5 (Homo sapiens, UniProt P41594). To be noted: mGluR5, Sp. Hs; cited from earlier work.

Turning to `N[C@@]1(C(=O)O)CC[C@@H](C(=O)O)C1` [(1S,3R)-ACPD], the “Affinity (pKi)” value on mGluR1 is on record as 5.5-6.1 pKi.

As to `N#Cc1cccc(C(=O)Nc2cc(-c3ccccc3)nn2-c2ccccc2)c1` [CDPPB], the “Affinity (pEC50)” value at mGluR5 [1] is recorded as 7.7 pEC50; at mGluR5 [2], 7.6-8.0 pEC50.

Turning to `Cc1cccc(C#Cc2ccccc2)n1` [MPEP], the “Affinity (pIC50)” value on mGluR5 [2] is 7.4-7.7 pIC50.

In the case of `Cc1n[14c](C#Cc2cccnc2)cs1` [[14C]MTEP], the “Affinity (pIC50)” value on mGluR5 [1] is reported as 7.7 pIC50.
